Test [1] has as its target PARP7 (amino acids 456-657) (Homo sapiens, UniProt Q7Z3E1). In words: PARP7 biochemical DELFIA assay (auto-MARylation). The conditions noted are these: read-out: PARP7 activity.
The next test deals with PARP1 (Homo sapiens, UniProt P09874). In words: PARP1 biochemical DELFIA assay (auto-PARylation). Conditions: read-out: PARP1 activity.

Chains of the proteins cited; added tags and fusions are not shown. Residues count along the entry.
UniProt Q7Z3E1, 456-657 limits assumed: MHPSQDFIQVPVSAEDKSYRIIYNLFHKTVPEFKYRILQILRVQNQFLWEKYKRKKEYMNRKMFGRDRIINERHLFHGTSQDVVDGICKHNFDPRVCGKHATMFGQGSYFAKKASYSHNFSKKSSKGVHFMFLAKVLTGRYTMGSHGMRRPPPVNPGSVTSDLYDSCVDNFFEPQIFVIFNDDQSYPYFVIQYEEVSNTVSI
UniProt P09874, whole entry: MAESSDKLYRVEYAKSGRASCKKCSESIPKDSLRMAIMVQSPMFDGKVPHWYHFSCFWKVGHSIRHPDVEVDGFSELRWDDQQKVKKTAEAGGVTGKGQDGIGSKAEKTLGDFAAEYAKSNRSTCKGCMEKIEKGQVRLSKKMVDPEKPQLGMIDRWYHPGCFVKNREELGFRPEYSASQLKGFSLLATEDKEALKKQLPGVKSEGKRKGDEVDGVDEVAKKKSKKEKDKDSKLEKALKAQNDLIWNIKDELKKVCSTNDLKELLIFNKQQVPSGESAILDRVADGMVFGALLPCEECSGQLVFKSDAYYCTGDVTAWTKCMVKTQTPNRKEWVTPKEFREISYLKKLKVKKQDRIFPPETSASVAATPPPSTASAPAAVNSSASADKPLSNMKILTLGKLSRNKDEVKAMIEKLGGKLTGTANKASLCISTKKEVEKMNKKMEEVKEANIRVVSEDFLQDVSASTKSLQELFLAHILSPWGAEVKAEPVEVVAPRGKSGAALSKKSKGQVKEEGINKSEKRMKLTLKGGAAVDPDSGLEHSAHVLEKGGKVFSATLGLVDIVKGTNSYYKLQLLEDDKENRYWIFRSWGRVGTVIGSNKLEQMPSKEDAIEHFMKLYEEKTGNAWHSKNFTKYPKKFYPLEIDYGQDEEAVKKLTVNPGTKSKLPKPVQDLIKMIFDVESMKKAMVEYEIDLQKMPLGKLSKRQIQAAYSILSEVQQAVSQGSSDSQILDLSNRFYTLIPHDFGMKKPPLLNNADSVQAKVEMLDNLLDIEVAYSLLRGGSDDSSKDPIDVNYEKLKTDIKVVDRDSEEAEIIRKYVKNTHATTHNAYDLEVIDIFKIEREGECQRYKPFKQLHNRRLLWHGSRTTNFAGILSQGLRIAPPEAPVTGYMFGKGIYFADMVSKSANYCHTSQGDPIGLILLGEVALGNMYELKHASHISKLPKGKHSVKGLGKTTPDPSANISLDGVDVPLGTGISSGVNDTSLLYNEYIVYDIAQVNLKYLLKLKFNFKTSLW

Where two headings read alike, the source gives them in different places.

For `O=C(CN1CCCC1c1cc(C(F)(F)F)c(=O)[nH]n1)N1CCN(c2ccc(C3CC3)cn2)CC1` (single isomer, unassigned) [Compound 79a], the IC50 (in test [1] (Table 1A); at PARP1 (Table 1A)) was 1000 to 10000 nM in each case.
Regarding `N#Cc1cc(C2CCCN2CC(=O)N2CCN(c3nc4ccc(Cl)cc4o3)CC2)n[nH]c1=O` (single isomer, unassigned) [130b], the IC50 (in test [1] (Table 1A); at PARP1 (Table 1A)) was 1000 to 10000 nM each time.
Turning to `O=C(CN1CCCC1c1cc(C(F)(F)F)c(=O)[nH]n1)N1CCN(c2nc3ccc(F)cc3o2)CC1` (single isomer, unassigned) [Compound 95b], the IC50 (in test [1] (Table 1A); on PARP1 (Table 1A)) was < 10 nM in each case.
For the compound `O=C(CN1CCCC1c1cc(C(F)(F)F)c(=O)[nH]n1)N1CCN(c2ccc(OC(F)(F)F)cn2)CC1` (single isomer, unassigned) [Compound 81b], the IC50 was in the range of 100 to 1000 nM in test [1] (Table 1A) and 1000 to 10000 nM on PARP1 (Table 1A).
The like results for `N#Cc1cnc(N2CCN(C(=O)CN3CCCC3c3cc(C(F)(F)F)c(=O)[nH]n3)CC2)c(C(F)(F)F)c1` (single isomer, unassigned) [Compound 124b] were, in that order, 10 to 100 nM and 10 to 100 nM.
The corresponding values for `O=C(CN1CCCC1c1cc(C(F)(F)F)c(=O)[nH]n1)N1CCN(c2ncc(C(F)(F)F)cc2F)CC1` (single isomer, unassigned) [89a] are < 10 nM and 100 to 1000 nM.
The corresponding values for `N#Cc1cc(Cl)cnc1N1CCN(C(=O)CN2CCCC2c2cc(C(F)(F)F)c(=O)[nH]n2)CC1` (single isomer, unassigned) [Compound 144a] are 1000 to 10000 nM and 1000 to 10000 nM.
Regarding `CNC(=O)c1ccc(N2CCN(C(=O)CCN3CCCC(c4cc(C(F)(F)F)c(=O)[nH]n4)C3)CC2)cn1` (racemic), the IC50 in test [1] (Table 1) was in the range of 1000 to 10000 nM; at PARP1 (Table 1) it was 100 to 1000 nM.
For `N#Cc1cnc(N2CCN(C(=O)CCN3CCCC(c4cc(C(F)(F)F)c(=O)[nH]n4)C3)CC2)nc1` (racemic), the IC50 (in test [1] (Table 1); at PARP1 (Table 1)) was 100 to 1000 nM in each case.
For the compound `N#Cc1ccc(N2CCN(C(=O)CCN3CCCC(c4cc(C(F)(F)F)c(=O)[nH]n4)C3)CC2)nc1` (single isomer, unassigned) [Compound 11b], the IC50 (in test [1] (Table 1); at PARP1 (Table 1)) was 100 to 1000 nM each time.
For `O=C(CN1CCCC1c1cc(C(F)(F)F)c(=O)[nH]n1)N1C2CCC1CN(c1ncc(C(F)(F)F)cn1)C2` (single isomer, unassigned) [109a], the IC50 in test [1] (Table 1A) was < 10 nM; at PARP1 (Table 1A), 10 to 100 nM.

Source of the values: patent US20260193238A1, “PHARMACEUTICAL COMPOUNDS AS PARP7 AND/OR PARP1 INHIBITORS” (Duke Street Bio Limited, priority 2022, published 2026).
